# In patent publication US20110189675A1, “Method For Administering Anticoagulation Therapy” (Marshfield Clinic, priority 2007, published 2011):
# Assay: Stable therapeutic warfarin dose by CYP2C9, VKORC1 and rs2108622 (CYP4F2) genotype, 424 subjects
# Type: in vivo, human
# Description: The initial cohort was recruited at Marshfield Clinic, a multi-specialty group practice in Wisconsin as described.^6, 16 Patients were excluded from the study if they were known to have cancer, renal or hepatic insufficiency, or congestive heart failure.
# The targeted human DMET 1.0 assay (Affymetrix, Inc, Santa Clara, Calif.) utilizes molecular inversion probes and GeneChip universal tag arrays to target 1228 single nucleotide polymorphisms (SNP) within 170 genes for metabolic enzymes and transport and regulatory proteins (Table 2).
# The laboratory protocol followed the standard process described in the Targeted Genotyping System User Guide^25 except for a preliminary polymerase chain reaction (PCR)-amplification step aimed at resolving genotypes from 29 SNPs in regions containing pseudogenes and close homologues. GeneChip Targeted Genotyping Analysis software was used to make genotype calls and generate QC metrics including call rates, average signal, cluster quality, Hardy-Weinberg equilibrium, and reproducibility. […] Genotypes represented by the remaining 1217 SNP assays were called according to either predefined boundaries (derived from historical training sets) or dynamic clustering using the current data set. […] The remaining polymorphisms target rare mutations or SNPs prevalent in other racial groups.
# VKORC1 genotypes were determined on 436 Marshfield Clinic samples as described^6 and on the remaining 61 samples using Invader® chemistry in a laboratory test developed with analyte specific reagents manufactured by Third Wave Technologies (TWT, Madison, Wis.). The laboratory developed assay used analyte-specific reagents that detect CYP2C9*2, CYP2C9*3, and VKORC1 (position −1639).^26
smiles,measurement,setting,value
CC(=O)CC(c1ccccc1)c1c(O)c2ccccc2oc1=O (centres unmarked) [warfarin],Geometric Mean warfarin dose,"CYP2C9 *1/*2, VKORC1 CG, rs2108622 CC, N=22",23.2 mg/week
same,Geometric Mean warfarin dose,"CYP2C9 *1/*2, VKORC1 CG, rs2108622 CT, N=21",26.3 mg/week
same,Geometric Mean warfarin dose,"CYP2C9 *1/*3, VKORC1 CC, rs2108622 CC, N=4",13.0 mg/week
same,Geometric Mean warfarin dose,"CYP2C9 *1/*3, VKORC1 CG, rs2108622 CT, N=13",24.6 mg/week
same,Geometric Mean warfarin dose,"CYP2C9 *1/*3, VKORC1 CG, rs2108622 TT, N=2",24.7 mg/week
same,Geometric Mean warfarin dose,"CYP2C9 *1/*3, VKORC1 GG, rs2108622 CT, N=7",23.0 mg/week
same,Geometric Mean warfarin dose,"CYP2C9 *2/*3, VKORC1 CC, rs2108622 CT, N=1",12.5 mg/week
same,Geometric Mean warfarin dose,"CYP2C9 *2/*3, VKORC1 CG, rs2108622 CC, N=1",12.0 mg/week
